Literature values in patent US20150108064A1, “Production Of Channel Type Cyclodextrin Crystals” (Amphidex A/S, priority 2012, published 2015).

Conditions: maximum safe concentration in the air, worker exposed daily

TLV: 50 ppm
Substance: 1-butanol
